Reference: patent US7674819B2 (Warner-Lambert Company LLC, priority 2005, dated 2010)

By UniProt entry, the sequences of proteins in these tests, tags left out.
UniProt P10275, whole entry: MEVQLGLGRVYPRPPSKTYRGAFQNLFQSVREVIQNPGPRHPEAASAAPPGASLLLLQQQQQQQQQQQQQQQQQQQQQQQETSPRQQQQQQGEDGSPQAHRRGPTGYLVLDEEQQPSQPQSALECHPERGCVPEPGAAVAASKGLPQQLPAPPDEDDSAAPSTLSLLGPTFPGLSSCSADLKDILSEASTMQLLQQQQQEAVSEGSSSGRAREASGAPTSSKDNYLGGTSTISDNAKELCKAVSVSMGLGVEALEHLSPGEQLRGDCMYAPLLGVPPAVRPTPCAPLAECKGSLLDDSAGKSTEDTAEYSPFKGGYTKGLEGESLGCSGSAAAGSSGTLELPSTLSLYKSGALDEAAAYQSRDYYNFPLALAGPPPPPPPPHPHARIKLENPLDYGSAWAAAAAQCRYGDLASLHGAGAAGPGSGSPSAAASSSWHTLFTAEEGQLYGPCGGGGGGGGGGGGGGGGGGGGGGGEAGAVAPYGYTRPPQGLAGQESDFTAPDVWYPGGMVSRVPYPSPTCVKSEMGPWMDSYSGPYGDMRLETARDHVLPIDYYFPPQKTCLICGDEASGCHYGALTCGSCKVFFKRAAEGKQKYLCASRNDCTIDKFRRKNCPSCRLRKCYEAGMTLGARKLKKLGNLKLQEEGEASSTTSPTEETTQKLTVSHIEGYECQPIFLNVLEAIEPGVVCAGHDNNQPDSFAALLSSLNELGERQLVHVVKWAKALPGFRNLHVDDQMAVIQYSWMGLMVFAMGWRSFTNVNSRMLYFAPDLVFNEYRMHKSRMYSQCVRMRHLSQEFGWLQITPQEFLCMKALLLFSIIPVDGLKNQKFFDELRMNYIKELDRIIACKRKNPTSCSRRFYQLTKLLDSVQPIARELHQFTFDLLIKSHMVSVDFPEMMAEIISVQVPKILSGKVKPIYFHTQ
UniProt P10275, whole entry Q868H: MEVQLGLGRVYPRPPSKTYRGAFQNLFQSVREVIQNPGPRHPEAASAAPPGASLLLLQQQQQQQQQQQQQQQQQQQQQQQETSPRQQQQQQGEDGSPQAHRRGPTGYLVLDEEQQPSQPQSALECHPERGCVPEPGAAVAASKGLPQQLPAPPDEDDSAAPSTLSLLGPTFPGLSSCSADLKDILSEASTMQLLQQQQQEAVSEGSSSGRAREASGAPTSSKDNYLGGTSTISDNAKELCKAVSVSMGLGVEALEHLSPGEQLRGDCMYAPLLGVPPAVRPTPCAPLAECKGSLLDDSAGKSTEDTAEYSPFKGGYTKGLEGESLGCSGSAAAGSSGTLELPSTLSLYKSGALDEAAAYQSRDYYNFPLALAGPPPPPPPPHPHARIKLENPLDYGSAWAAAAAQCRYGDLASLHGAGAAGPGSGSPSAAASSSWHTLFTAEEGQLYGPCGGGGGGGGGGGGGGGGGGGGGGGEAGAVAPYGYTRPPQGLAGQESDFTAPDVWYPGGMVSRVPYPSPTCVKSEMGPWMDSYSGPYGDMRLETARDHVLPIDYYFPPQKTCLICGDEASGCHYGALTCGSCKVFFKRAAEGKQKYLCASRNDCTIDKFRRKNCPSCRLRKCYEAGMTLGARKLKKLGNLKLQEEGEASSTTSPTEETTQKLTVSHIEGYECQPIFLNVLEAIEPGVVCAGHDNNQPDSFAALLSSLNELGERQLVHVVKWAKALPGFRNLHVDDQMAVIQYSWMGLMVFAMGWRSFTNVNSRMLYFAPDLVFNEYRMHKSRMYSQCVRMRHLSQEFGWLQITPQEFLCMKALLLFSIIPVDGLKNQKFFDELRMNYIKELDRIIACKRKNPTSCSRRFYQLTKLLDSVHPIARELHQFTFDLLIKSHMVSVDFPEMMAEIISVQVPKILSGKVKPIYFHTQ

Columns and labels:
androgen receptor = androgen receptor (Homo sapiens, UniProt P10275); test: AR Antagonist Cell Assay (MDA-MB453-MMTV clone 54-19, luciferase reporter); format: cell-based; conditions: inhibition of induction by DHT (final concentration at 100 μM), 17 hr; compound 0.32-1000 nM; mean of multiple tests
hAR = hAR (Homo sapiens, UniProt P10275); test: Competitive binding of 3H-DHT to baculovirus/Sf9 generated hAR extracts; conditions: concentration at which one half of maximum binding of 1 nM 3H-DHT to hAR is inhibited; one hour at 4° C.; mean of multiple tests

Cc1nnsc1-c1nnc(CN2CC(C)(C)C(Oc3ccc(C#N)c(C(F)(F)F)c3)C2=O)o1 (centres unmarked)
IC50 (androgen receptor): 542 nM | IC50 (hAR): 191 nM
